Experimental data reported in patent US5336483A (priority 1993, dated 1994).

Protein sequences, listed by entry. Tags and fused reporters are not part of them. Lines headed by an entry give the natural chain unless they say otherwise; changes in a name come on top.
UniProt P41144: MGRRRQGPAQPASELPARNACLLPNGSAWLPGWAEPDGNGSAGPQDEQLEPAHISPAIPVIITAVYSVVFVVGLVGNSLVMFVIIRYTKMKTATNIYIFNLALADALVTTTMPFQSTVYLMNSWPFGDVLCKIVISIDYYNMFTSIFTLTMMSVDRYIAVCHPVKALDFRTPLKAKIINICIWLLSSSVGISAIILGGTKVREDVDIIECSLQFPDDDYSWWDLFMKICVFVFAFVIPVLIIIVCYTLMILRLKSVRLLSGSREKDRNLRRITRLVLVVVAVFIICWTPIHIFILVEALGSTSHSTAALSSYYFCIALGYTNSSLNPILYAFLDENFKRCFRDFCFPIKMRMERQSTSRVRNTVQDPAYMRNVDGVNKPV

Biological target: κ1 receptor (Cavia porcellus, UniProt P41144)
Details: read-out: Kd of radioligand; [^3 H]U69,593

With `CN(C(=O)Cc1ccccc1)C1CCC2(CCCO2)CC1N1CCCC1` (stereo not shown) as the compound, how does the pKd read?
The pKd was 8.80.

pKd: −log10 of the molar value.
